Reference: PubChem BioAssay AID743287 (Broad Institute, 2014)
The entries are a selection whose mix differs from that of the whole data set. Activity calls are given as the source filed them.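 How the source made its calls: active means lowest replicate activation of at least 40%, so every replicate reaches that level; inactive means the rest.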

assay: GLuc luminescence reporter in INS-1E cells, primary screen for activators of glucose-dependent secretion of insulin (AID 743287); conditions: INS-1E GLuc reporter insulin secretion, 2-3 h, at 16.6 µM, active compounds read high;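 further: 0% = median of neutral control wells and 100% = median of IBMX positive control wells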

| SMILES | activation |
| --- | --- |
| CN(C(=O)Cc1ccccc1)C1CC[C@@]2(CCCO2)C[C@@H]1N1CCCC1 (stereo partly drawn) | inactive: -0.171% |
| CCN(N=Nc1nonc1N)c1nonc1N | inactive: 15% |
| c1ccc(-c2nn[nH]n2)c(-c2nn[nH]n2)c1 | inactive: 9.28% |
| CCNC(=S)/N=C(\N)N[N+](=O)[O-] | inactive: -3.52% |
| O=C(NC1CCS(=O)(=O)C1)NP(=S)(Oc1ccccc1)Oc1ccccc1 (stereo not drawn) | inactive: -13.2% |
| Cc1ccccc1OP(=O)(Nc1ccccn1)Oc1ccccc1C | inactive: -10.1% |
| CC(NC(=O)COC(=O)C(O)(c1ccccc1)c1ccccc1)c1ccccc1 (stereo not drawn) | inactive: -19.5% |
| CN(C)C(=O)Oc1noc2ccccc12 | inactive: -2.64% |
| O=c1c2cc([N+](=O)[O-])ccc2[nH]c2c([N+](=O)[O-])cc([N+](=O)[O-])cc12 | inactive: -26% |
| O=C(OC1CN2CCC1CC2)c1ccccc1 (stereo not drawn) | inactive: 4.95% |
| CC(=O)NC(SC(=S)N(CC(C)C)CC(C)C)C(Cl)(Cl)Cl (stereo not drawn) | inactive: -2.54% |
| Cc1ccc(OP(=O)(Nc2ccccn2)Oc2ccc(C)cc2)cc1 | inactive: 5.95% |
| CC(C)(C)C(=O)NC(Sc1ccccc1)C(Cl)(Cl)Cl (stereo not drawn) | inactive: 29.8% |
| CCc1cc(O)c([N+](=O)[O-])c(C)c1[N+](=O)[O-] | inactive: -12.6% |
| CCOc1ccc(C2=NCC(CBr)S2)cc1 (stereo not drawn) | inactive: -12.1% |
| CC(=O)Nc1ccc([As](=O)(O)O)c(O)c1 | inactive: 9.87% |
| Cc1ccccc1CN(C)C(=O)COC(=O)C(O)(c1ccccc1)c1ccccc1 | inactive: -7.67% |

| SMILES | activation |
| --- | --- |
| C[C@H]1OP(=O)(Oc2ccccc2)C[C@@H]2O[C@@H]21 (stereo partly drawn) | inactive: 8.22% |
| N#C/C(=C\c1ccc(N(CCBr)CCBr)cc1)C(N)=O | inactive: -4.28% |
| CC(=O)c1ccc(N2CC2c2ccncc2)cc1 (stereo not drawn) | active: 46.1% |
| COC(=O)C1(C)COP(=O)(NCc2ccccc2)OC1 (stereo not drawn) | inactive: 5.86% |
| CC(C)C(=O)NC(Sc1ccccc1)C(Cl)(Cl)Cl (stereo not drawn) | inactive: 8.83% |
| O=P(Nc1nc2ccccc2s1)(c1ccccc1)c1ccccc1 | inactive: 17.5% |
| C[C@H]1OP(=O)(Oc2ccccc2)[C@H](O)[C@H](O)[C@H]1N=[N+]=[N-] (stereo partly drawn) | inactive: -7.06% |
| O=P(Nc1ccccn1)(c1ccc(Br)cc1)c1ccc(Br)cc1 | inactive: -7.89% |
| CN(C)C1(CNC(=O)c2ccc(Cl)c(S(N)(=O)=O)c2)CCCCC1 | inactive: 2.36% |
| Nc1ccc(CCCCOc2ccccc2)cc1 | inactive: -7.84% |
| C/C(N)=N\P(=O)(OCc1ccccc1)OCc1ccccc1 | inactive: 8.3% |
| Nc1ccc([As](=O)(O)c2ccc([N+](=O)[O-])cc2)cc1 | inactive: -5.45% |
| C(Cc1nn[nH]n1)Cc1nn[nH]n1 | inactive: -2.39% |
| O=[As](O)(c1ccccc1)c1ccc(O)cc1 | inactive: 7.46% |
| CC(=O)NC(SC(=S)N(C)C)C(Cl)(Cl)Cl (stereo not drawn) | inactive: -20.8% |
| O=[N+]([O-])c1ncn(CCn2cnc([N+](=O)[O-])n2)n1 | inactive: -11.3% |
